# Test results from US8815007B2, “Alkoxylated polyamines and polyetheramine polyol compositions for foam control” (priority 2007, dated 2014).
# Assay: pH
# Format: physicochemical
# Settings: Table 3
substance,measurement,value
diethylenetriamine/2 mol 1-epoxyoctane adduct [Example 2],pH,10.9
